The numbers were not newly measured in publication PMC7529705, which cites them from elsewhere.

For data set [1], the target named is histone H3R2me1 peptide (Homo sapiens) (UniProt P68431). Particulars: cited from earlier work.
The target of data set [2] is histone H3R2me2s peptide (Homo sapiens) (UniProt P68431). Particulars: cited from earlier work.

Turning to WDR5 (from UniProt P61964), the Kd in data set [1] is above 500000 nM; in data set [2], 100 nM.

In general, Kd refers to the free concentration of one partner at which half of the binding sites on the other are occupied at equilibrium, for simple one-to-one binding.
